{"sequences": {"note": "By UniProt entry, the sequences of proteins in these tests, tags left out. Where a name states a change or a piece, a line headed by the entry shows the natural chain unless it says otherwise. Residues count along the entry.", "UniProt Q92630": "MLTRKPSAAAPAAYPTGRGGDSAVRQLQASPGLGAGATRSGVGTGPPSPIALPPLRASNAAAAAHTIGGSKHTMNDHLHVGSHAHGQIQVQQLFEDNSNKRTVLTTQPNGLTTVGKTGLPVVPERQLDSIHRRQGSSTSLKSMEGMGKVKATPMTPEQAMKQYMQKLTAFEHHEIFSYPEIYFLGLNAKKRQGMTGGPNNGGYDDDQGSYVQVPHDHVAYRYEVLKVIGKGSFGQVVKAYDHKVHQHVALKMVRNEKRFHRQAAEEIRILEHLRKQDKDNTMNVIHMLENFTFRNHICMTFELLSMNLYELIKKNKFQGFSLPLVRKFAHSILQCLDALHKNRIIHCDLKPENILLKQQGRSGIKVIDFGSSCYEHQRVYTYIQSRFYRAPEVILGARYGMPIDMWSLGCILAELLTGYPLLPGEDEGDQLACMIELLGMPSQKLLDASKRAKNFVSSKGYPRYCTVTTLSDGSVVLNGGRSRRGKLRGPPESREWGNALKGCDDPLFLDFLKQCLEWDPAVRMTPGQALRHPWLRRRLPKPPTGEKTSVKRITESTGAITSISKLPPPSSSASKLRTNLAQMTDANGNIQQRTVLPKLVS", "UniProt P43403": "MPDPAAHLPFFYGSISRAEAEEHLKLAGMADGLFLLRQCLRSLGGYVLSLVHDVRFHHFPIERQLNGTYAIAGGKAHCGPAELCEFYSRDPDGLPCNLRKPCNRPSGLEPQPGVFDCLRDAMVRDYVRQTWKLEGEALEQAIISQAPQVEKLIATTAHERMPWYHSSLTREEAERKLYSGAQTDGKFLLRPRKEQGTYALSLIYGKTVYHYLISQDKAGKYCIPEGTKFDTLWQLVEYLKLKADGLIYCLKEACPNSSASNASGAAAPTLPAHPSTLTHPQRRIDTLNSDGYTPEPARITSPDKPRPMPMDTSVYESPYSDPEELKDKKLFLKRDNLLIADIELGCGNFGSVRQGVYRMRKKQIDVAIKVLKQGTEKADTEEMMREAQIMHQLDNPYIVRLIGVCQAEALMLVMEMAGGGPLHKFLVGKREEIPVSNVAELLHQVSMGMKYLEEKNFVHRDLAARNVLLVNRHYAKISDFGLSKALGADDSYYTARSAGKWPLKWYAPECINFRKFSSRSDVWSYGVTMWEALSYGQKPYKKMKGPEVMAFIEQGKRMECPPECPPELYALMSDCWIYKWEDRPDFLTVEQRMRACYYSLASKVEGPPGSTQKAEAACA", "UniProt Q9NWZ3, whole entry": "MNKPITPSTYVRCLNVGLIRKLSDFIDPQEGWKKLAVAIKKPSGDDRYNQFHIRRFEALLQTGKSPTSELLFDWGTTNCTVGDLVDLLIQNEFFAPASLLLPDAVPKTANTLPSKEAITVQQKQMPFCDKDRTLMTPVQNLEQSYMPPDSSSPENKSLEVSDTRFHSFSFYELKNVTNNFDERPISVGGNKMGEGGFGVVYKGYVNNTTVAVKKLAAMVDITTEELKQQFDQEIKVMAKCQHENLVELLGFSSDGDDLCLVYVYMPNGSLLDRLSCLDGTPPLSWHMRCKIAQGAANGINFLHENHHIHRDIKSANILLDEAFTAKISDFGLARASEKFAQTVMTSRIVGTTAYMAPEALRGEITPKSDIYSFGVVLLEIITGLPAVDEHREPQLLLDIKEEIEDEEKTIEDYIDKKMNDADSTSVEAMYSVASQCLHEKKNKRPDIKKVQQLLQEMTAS", "UniProt Q9BX84": "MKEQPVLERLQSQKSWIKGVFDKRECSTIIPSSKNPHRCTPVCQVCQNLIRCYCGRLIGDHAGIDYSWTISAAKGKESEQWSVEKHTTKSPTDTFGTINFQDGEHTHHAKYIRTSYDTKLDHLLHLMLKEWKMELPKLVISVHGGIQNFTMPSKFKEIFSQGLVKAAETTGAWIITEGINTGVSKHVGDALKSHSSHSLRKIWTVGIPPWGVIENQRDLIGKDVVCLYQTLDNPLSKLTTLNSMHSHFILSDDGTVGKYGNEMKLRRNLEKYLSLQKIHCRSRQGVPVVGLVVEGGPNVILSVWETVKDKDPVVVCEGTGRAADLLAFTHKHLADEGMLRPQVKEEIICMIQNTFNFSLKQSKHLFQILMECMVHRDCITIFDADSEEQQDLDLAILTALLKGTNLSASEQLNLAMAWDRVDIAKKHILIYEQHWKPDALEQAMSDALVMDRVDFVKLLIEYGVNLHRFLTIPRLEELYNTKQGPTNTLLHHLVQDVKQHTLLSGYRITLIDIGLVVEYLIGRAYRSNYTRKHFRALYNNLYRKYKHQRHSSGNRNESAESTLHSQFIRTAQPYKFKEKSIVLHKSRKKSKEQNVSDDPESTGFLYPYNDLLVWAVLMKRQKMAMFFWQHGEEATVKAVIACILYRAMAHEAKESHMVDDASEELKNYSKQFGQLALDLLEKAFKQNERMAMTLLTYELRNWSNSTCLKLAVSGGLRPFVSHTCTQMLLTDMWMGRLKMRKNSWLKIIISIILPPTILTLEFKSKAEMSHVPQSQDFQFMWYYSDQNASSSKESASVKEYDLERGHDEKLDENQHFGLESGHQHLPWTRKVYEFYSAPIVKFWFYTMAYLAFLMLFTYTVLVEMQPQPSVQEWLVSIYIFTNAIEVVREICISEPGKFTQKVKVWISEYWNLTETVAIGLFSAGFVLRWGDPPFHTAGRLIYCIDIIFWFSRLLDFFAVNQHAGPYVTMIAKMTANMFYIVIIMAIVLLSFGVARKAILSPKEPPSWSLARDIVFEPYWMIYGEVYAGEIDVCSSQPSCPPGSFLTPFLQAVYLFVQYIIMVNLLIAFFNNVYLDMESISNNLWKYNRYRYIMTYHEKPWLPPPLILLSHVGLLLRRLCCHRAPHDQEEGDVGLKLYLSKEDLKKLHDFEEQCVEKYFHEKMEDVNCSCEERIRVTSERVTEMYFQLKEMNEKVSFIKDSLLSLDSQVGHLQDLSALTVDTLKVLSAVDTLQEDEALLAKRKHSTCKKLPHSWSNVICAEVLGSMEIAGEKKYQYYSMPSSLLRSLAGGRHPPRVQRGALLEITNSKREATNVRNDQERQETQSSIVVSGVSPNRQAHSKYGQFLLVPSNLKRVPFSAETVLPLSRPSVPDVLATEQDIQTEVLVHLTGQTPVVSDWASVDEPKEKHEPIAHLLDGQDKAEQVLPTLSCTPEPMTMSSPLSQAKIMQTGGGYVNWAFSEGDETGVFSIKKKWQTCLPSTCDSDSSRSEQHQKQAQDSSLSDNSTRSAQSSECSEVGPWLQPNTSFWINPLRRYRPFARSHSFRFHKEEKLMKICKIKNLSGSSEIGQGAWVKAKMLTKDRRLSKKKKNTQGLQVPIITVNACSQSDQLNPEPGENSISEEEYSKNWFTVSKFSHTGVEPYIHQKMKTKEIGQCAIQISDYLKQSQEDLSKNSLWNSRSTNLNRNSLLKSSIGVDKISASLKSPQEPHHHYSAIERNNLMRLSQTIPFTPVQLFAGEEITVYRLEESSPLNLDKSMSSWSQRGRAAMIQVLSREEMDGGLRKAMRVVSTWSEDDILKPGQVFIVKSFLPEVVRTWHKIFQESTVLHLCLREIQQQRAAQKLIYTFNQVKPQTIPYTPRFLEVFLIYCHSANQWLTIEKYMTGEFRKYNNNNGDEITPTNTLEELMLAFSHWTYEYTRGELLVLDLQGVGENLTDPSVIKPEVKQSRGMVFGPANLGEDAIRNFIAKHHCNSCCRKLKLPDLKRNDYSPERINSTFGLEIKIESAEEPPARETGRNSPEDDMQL", "UniProt P42336, whole entry I800L": "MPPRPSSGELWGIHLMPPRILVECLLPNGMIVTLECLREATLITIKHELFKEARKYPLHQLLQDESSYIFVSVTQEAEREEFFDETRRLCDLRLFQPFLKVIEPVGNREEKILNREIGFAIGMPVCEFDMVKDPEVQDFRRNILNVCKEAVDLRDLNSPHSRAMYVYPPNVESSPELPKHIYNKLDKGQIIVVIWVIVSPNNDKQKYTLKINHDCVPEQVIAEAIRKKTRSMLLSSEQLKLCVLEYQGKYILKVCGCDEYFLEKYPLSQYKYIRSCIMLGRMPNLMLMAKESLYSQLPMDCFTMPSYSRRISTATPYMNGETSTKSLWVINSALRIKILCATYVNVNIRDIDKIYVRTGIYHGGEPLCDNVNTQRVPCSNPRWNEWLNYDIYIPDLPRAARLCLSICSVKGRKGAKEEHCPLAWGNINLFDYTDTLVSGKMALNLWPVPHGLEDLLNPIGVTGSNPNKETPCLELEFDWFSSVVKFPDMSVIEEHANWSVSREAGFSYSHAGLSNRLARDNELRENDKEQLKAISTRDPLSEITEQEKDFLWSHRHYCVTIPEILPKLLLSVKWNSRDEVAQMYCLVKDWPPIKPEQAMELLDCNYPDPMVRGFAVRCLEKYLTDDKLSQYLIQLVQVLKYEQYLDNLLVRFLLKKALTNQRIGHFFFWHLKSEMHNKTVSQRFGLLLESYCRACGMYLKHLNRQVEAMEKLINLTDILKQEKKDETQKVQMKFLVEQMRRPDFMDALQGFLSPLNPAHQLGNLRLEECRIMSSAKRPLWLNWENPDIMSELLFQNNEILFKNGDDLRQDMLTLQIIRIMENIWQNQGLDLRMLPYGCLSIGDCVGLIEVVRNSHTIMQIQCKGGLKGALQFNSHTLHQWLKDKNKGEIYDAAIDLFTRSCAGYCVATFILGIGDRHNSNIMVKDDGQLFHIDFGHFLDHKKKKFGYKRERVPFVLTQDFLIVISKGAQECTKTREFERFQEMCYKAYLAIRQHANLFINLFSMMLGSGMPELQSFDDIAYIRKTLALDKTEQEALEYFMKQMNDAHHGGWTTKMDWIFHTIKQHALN", "UniProt O96013": "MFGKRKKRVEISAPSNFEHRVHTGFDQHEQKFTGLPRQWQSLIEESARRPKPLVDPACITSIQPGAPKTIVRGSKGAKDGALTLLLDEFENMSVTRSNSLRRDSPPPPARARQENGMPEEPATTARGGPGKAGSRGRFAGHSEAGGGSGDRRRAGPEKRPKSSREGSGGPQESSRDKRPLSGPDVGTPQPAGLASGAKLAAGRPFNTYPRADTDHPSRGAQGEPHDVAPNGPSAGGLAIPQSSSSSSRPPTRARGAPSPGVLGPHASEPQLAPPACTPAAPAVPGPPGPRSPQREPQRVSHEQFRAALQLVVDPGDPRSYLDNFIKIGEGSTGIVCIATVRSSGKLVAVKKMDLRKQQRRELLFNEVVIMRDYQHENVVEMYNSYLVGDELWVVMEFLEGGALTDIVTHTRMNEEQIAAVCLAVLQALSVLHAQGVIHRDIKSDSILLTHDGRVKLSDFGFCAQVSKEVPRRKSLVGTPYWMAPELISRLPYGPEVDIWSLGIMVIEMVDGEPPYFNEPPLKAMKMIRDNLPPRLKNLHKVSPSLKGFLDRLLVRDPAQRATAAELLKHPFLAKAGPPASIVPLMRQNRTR", "UniProt Q13882, whole entry": "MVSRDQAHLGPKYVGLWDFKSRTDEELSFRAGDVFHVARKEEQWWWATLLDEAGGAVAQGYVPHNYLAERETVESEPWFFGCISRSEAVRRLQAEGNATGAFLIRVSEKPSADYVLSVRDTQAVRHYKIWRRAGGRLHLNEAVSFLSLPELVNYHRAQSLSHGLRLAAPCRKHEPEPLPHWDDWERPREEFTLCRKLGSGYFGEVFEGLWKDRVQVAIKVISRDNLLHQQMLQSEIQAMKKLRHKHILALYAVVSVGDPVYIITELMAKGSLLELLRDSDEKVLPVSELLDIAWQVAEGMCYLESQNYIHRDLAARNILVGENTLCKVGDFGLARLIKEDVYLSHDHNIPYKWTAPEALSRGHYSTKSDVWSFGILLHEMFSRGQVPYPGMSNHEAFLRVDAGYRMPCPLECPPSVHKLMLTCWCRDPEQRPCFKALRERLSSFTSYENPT", "UniProt P22607, 23-806": "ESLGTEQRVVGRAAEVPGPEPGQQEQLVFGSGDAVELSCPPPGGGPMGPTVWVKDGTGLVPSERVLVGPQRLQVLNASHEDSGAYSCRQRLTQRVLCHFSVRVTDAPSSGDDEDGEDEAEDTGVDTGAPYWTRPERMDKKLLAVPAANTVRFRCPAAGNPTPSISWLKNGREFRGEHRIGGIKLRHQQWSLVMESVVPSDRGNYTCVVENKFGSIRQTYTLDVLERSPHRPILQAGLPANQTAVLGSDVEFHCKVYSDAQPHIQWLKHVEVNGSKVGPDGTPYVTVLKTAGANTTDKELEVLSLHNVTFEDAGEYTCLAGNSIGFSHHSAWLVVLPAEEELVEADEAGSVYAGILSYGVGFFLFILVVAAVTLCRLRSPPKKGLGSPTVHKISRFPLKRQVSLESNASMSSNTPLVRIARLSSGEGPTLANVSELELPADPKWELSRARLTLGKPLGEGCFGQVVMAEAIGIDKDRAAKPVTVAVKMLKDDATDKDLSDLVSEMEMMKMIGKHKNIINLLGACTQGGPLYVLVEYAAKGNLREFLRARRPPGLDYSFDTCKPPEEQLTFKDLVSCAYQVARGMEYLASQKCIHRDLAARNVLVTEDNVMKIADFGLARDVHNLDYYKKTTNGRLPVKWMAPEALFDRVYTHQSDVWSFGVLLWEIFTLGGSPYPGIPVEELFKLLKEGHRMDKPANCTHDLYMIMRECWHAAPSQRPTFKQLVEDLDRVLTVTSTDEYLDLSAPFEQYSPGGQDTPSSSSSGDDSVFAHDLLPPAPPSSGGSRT"}, "source": "paper PMC11472320", "about": "“Computationally Driven Discovery of a BCR-ABL1 Kinase Inhibitor with Activity in Multidrug-Resistant Chronic Myeloid Leukemia” (Journal of Medicinal Chemistry, 2024)", "test_in_all_cases": "biochemical", "conditions_in_all_cases": "read-out: Percent Control", "key": {"DYRK2": {"biological_target": "DYRK2 (Homo sapiens, UniProt Q92630)"}, "JNK2": {"biological_target": "JNK2 (Homo sapiens, UniProt P45984)"}, "FLT3(N841I)": {"biological_target": "FLT3(N841I) (Homo sapiens, UniProt P36888, N841I)"}, "ZAP70": {"biological_target": "ZAP70 (Homo sapiens, UniProt P43403)"}, "IRAK4": {"biological_target": "IRAK4 (Homo sapiens, UniProt Q9NWZ3)"}, "FLT3": {"biological_target": "FLT3 (Homo sapiens, UniProt P36888)"}, "TRPM6": {"biological_target": "TRPM6 (Homo sapiens, UniProt Q9BX84)"}, "PIK3CA(I800L)": {"biological_target": "PIK3CA(I800L) (Homo sapiens, UniProt P42336, I800L)"}, "PAK4": {"biological_target": "PAK4 (Homo sapiens, UniProt O96013)"}, "BRK": {"biological_target": "BRK (Homo sapiens, UniProt Q13882)"}, "FGFR3": {"biological_target": "FGFR3 (Homo sapiens, UniProt P22607)"}}, "data": [{"smiles": "COc1cc2c(Nc3ccc(Cl)c(OC)n3)c(C#N)cnc2cc1OCCON1CCN(C)CC1", "note": "[16a, 4-((5-Chloro-6-methoxypyridin-2-yl)amino)-6-methoxy-7-(2-((4-methylpiperazin-1-yl)oxy)ethoxy)quinoline-3-carbonitrile]", "values": [{"measurement": "remaining activity at 1 µM", "setting": "DYRK2", "result": 92, "unit": "%"}, {"measurement": "remaining activity at 1 µM", "setting": "JNK2", "result": 97, "unit": "%"}, {"measurement": "remaining activity at 1 µM", "setting": "FLT3(N841I)", "result": 17, "unit": "%"}, {"measurement": "remaining activity at 1 µM", "setting": "ZAP70", "result": 58, "unit": "%"}, {"measurement": "remaining activity at 1 µM", "setting": "IRAK4", "result": 72, "unit": "%"}, {"measurement": "remaining activity at 1 µM", "setting": "FLT3", "result": 27, "unit": "%"}, {"measurement": "remaining activity at 1 µM", "setting": "TRPM6", "result": 100, "unit": "%"}, {"measurement": "remaining activity at 1 µM", "setting": "PIK3CA(I800L)", "result": 100, "unit": "%"}, {"measurement": "remaining activity at 1 µM", "setting": "PAK4", "result": 47, "unit": "%"}, {"measurement": "remaining activity at 1 µM", "setting": "BRK", "result": 96, "unit": "%"}, {"measurement": "remaining activity at 1 µM", "setting": "FGFR3", "result": 86, "unit": "%"}]}]}
